Only a part is listed here, and it is no random draw. Some tests of the compounds listed are not included; inactive here does not mean inactive elsewhere. Active and inactive are the calls of the source. Rule as the data show it: active = activity change above about 30% (passing the limit was not always enough); inactive = the rest.
target: Hepatocyte nuclear factor 4-alpha (Homo sapiens) (UniProt P41235); test: HNF4-alpha DNA association modulation – biochemical, fluorescence polarization, FITC-DNA, primary screen (AID 1224865); conditions: HNF4a-FITC DNA binding, 1 h, at 10 µM, active compounds read high

Sequences of proteins named here, by UniProt entry; tags and fusion partners are left off.
UniProt P41235, whole entry: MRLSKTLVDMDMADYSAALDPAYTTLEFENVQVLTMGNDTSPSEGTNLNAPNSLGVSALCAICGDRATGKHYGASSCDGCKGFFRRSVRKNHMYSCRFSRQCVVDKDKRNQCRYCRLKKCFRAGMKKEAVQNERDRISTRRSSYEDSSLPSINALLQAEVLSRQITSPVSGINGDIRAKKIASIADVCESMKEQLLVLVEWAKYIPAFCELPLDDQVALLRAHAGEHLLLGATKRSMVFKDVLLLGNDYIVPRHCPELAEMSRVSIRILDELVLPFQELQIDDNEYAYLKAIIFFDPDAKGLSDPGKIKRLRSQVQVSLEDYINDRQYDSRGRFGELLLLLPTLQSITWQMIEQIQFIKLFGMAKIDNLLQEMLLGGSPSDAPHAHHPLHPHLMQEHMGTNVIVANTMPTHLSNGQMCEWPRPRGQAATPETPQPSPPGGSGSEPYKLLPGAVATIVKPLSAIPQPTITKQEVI

| SMILES | activity change |
| --- | --- |
| O=C(NCC1(N2CCCCC2)CCCCC1)c1cc([N+](=O)[O-])ccc1Cl | inactive: -0.25% |
| CN1[C@@H]2CC[C@H]1CC(OC(=O)C(O)(c1ccccc1)c1ccccc1)C2 (stereo partly specified) | inactive: 4.18% |
| CC(C)N1C(=O)CC2(CCN(CCOC(=O)C(O)(c3ccccc3)c3ccccc3)CC2)C1=O | inactive: 1.4% |
| COc1cc(SC)ccc1C(=O)NCC1(N(C)C)CCCCC1 | inactive: -3.04% |
| CCN(CC)CC(C)C(C)OC(=O)C(O)(c1ccccc1)c1ccccc1 (stereo unspecified) | inactive: -2.48% |
| Cc1ccc(C(=O)NCC2(N3CCCCC3)CCCCC2)cc1 | inactive: 0.57% |
| CN(C)C1CCCC1OC(=O)C(O)(c1ccccc1)c1ccccc1 (stereo unspecified) | inactive: -0.89% |
| CN(C)c1ccc(C(=O)NCC2(N(C)C)CCCCC2)cc1 | inactive: -1.73% |
| Cc1ccccc1C(=O)NCC1(N2CCCCC2)CCCCC1 | inactive: -0.34% |
| O=C(NCC1(N2CCCCC2)CCCCC1)c1cc(F)c(F)cc1Cl | inactive: 3.01% |
| C=CCN1CCN(CCOC(=O)C(O)(c2ccccc2)c2ccccc2)CC1 | inactive: 0.67% |
| O=C(NCC1(N2CCCCC2)CCCCC1)c1cccc(Br)c1 | inactive: -1.19% |
| Cc1cc(C(=O)NCC2(N3CCCCC3)CCCCC2)ccc1[N+](=O)[O-] | inactive: -0.46% |
| CCN1CCCC(OC(=O)C2(O)c3ccccc3C=Cc3ccccc32)C1 (stereo unspecified) | inactive: -2.43% |
| COc1ccc(C(=O)NCC2(N(C)C)CCCCC2)cc1 | inactive: -0.32% |
| CN(C)C1(CNC(=O)c2ccc(Br)cc2)CCCCC1 | inactive: -0.54% |
| COc1cc(C(=O)NCC2(N(C)C)CCCCC2)c([N+](=O)[O-])cc1OC | inactive: 0.92% |
| COc1ccc(Cl)cc1C(=O)NCC1(N(C)C)CCCCC1 | inactive: 1.07% |
| COc1cccc(C(=O)NCC2(N3CCCCC3)CCCCC2)c1 | inactive: 3.67% |
| O=C(NCC1(N2CCCCC2)CCCCC1)c1cccc(Cl)c1 | inactive: 1.46% |
| O=C(OC1CN2CCC1CC2)C(CO)(c1ccccc1)c1ccccc1 (stereo unspecified) | inactive: -1.29% |
| COc1ccc(Br)c(C(=O)NCC2(N3CCCCC3)CCCCC2)c1 | inactive: 2.29% |
| C=C(C)C#CC(O)(C(=O)OC1CCN(C)CC1)c1ccccc1 (stereo unspecified) | inactive: -2.81% |
| CN(C)c1cccc(C(=O)NCC2(N(C)C)CCCCC2)c1 | inactive: -3.08% |
| O=C(OCCN1CCCC1)C(O)(c1ccccc1)c1ccccc1 | inactive: -2.88% |
| CC(C)Oc1ccc(C(=O)NCC2(N(C)C)CCCCC2)cc1 | inactive: -2.98% |

Source: PubChem BioAssay AID1224865 (Sanford-Burnham Center for Chemical Genomics, 2016)
